Protein sequences, listed by entry. Tags and fused reporters are not part of them.
UniProt P20272, whole entry: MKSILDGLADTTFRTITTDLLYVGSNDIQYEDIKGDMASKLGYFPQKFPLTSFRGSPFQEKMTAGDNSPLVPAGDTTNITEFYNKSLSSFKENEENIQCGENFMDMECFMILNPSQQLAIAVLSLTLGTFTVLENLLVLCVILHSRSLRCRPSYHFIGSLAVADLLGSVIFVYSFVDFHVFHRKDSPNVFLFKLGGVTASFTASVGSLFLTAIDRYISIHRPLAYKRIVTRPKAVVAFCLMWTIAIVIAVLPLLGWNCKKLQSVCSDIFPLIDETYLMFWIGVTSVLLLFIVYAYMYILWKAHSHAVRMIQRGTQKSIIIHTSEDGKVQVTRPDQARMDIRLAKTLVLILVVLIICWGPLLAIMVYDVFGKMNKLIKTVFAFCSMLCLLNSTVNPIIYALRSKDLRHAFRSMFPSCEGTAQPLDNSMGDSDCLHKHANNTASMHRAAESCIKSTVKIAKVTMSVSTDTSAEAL

According to paper PMC11636628 (Journal of receptor and signal transduction research, 2024):

Target: rat CB1 (Rattus norvegicus, UniProt P20272)
Assay: thallium flux, HEK/GIRK cells
Type: cell-based

Compound: CCCCC/C=C\C/C=C\C/C=C\C/C=C\CCCC(=O)OC(CO)CO [2-AG]
- EC50: 17 nM
